Source: patent US10184933B2, “Compositions, systems and methods for gene expression noise drug screening and uses thereof” (priority 2013, dated 2019)

Tests used:
[1] = test system: latent HIV-1 in primary T-cells; assay type: cell-based
Method: FIG. 18A schematically depicts a primary T-cell model of HIV-1 latency 48 h after reactivation with PMA or a subset of noise enhancers (% reactivation percentage is calculated relative to maximal reactivation potential). […] The horizontal line represents the mean calculated Bliss Independence Score (C. I. Bliss, Ann. Appl. Biol. 26:585-615 (1939)), a measure for strict additivity for all of the compounds. FIG. 18B schematically depicts stochastic simulations of noise suppression, which reduces noise without altering the mean expression level but limits reactivation induced by an activator. […] Details are described, e.g., in Example 10.

[2] = test system: latent HIV-1 in JLat 8.6 cells; assay type: cell-based

| Compound | synergy with PMA [1] | synergy in reactivation of HIV-1 latency [2] |
| --- | --- | --- |
| S=c1nc[nH]c2nc[nH]c12 [V9, mercaptopurine] | does not synergize significantly |  |
| CS(=O)(=O)OCCCCOS(C)(=O)=O [V69, busulfan] |  | synergized |
